Measurements as given in patent US8524809B2, “Low odor compositions and methods to attain low odor compositions” (Rohm and Haas Company, priority 2010, dated 2013).

Experiment: Nucleophilic reagents: aldehyde content in vinyl acetate-acrylic latex
Conditions: Rovace 9900 pre-treated 1 week with 50 ppm N51032; reagent 50 ppm, 55° C. 2 hours, then 1 week RT

C1CN1
Acetaldehyde Headspace Concentration: 175 ppm | Acetone Headspace Concentration: 247 ppm | Ethanol Headspace Concentration: 21 ppm | butanal Headspace Concentration: 1 ppm | l-butanol Headspace Concentration: 59 ppm | t-butanol Headspace Concentration: 274 ppm
